SMILES strings stand for the structures.

Protein sequences, listed by entry. Tags and fused reporters are not part of them. Residues count along the entry.
UniProt P73129, 1-96: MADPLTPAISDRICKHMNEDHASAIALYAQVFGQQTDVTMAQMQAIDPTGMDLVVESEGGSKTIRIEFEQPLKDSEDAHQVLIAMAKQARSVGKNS

The target in this test is T1, Dri1 (Synechocystis sp. PCC 6803, UniProt P73129).
T1 construct: gene ssr1698
The experiment in a line: UV-Vis heme titration (Soret), MCR-ALS and nonlinear fit. Format: binding.

On to `C=CC1=C(C)C2=Cc3c(C=C)c(C)c4[n]3[Fe]([Cl])[n]3c(c(C)c(CCC(=O)O)c3=CC3=NC(=C4)C(C)=C3CCC(=O)O)=CC1=N2` [hemin], for which the Kd came out at 150 nM.

These data come from publication PMC11014987, “A hemoprotein with a zinc-mirror heme site ties heme availability to carbon metabolism in cyanobacteria” (Nature Communications, 2024).
